In ChEMBL document CHEMBL4145697, “Replacement of a Naphthalene Scaffold in Kelch-like ECH-Associated Protein 1 (KEAP1)/Nuclear Factor (Erythroid-derived 2)-like 2 (NRF2) Inhibitors” (J Med Chem, 2018):
Active and inactive are the calls of the source. No cut-off for these calls is given here.

Protein sequences, listed by entry. Tags and fused reporters are not part of them.
UniProt Q16236, whole entry, looked up: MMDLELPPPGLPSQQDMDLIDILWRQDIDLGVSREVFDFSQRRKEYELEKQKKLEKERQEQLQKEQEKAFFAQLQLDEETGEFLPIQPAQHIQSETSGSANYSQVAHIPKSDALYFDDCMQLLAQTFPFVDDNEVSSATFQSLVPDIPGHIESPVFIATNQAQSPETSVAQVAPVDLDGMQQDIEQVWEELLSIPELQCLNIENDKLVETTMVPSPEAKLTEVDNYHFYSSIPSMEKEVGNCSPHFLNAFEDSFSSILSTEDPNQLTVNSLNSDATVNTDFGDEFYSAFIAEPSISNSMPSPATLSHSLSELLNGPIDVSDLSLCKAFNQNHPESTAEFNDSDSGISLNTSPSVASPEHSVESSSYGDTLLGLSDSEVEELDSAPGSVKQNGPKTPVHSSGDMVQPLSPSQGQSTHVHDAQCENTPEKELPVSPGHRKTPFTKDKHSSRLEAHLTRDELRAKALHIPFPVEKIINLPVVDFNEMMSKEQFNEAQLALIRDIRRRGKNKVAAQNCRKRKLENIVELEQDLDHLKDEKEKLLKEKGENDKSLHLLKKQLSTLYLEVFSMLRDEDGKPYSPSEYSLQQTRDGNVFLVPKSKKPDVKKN
UniProt Q14145, whole entry, looked up: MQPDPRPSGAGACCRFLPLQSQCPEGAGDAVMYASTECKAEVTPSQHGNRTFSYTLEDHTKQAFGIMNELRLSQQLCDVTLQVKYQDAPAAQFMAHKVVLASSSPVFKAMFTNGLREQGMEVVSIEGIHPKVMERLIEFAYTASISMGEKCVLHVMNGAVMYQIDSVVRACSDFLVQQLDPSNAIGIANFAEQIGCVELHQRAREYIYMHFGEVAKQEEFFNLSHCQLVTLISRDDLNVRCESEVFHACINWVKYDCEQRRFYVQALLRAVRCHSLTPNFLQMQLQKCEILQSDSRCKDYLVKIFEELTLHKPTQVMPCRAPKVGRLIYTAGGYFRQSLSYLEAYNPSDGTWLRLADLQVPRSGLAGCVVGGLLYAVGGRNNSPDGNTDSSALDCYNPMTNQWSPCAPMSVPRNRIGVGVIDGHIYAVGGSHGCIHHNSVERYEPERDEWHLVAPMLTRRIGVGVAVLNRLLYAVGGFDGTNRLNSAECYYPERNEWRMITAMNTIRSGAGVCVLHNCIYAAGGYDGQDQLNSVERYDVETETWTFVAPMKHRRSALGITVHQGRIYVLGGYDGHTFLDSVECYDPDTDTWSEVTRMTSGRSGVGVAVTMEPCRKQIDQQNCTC

How the values were obtained:
Format in all cases: cell-based
[1] = molecular target: T1, Keap1/Nrf2 (Homo sapiens) (UniProt Q16236+Q14145); assay: Inhibition of Keap1/Nrf2 interaction in human HaCaT cells assessed as increase in NRF2 nuclear accumulation at 10 uM incubated for 6 hrs by immunoblot assay
[2] = molecular target: T1, Keap1/Nrf2 (Homo sapiens); assay: Inhibition of Keap1/Nrf2 interaction in human HaCaT cells assessed as increase in NRF2 nuclear accumulation at 10 uM incubated for 24 hrs by immunoblot assay
[3] = molecular target: T1, Keap1/Nrf2 (Homo sapiens); assay: Inhibition of Keap1/Nrf2 interaction in human HaCaT cells assessed as increase in HMOX1 gene expression at 10 uM incubated for 6 hrs by qPCR method
[4] = molecular target: T1, Keap1/Nrf2 (Homo sapiens); assay: Inhibition of Keap1/Nrf2 interaction in human HaCaT cells assessed as increase in GCLM gene expression at 10 uM incubated for 6 hrs by qPCR method
[5] = molecular target: T1, Keap1/Nrf2 (Homo sapiens); assay: Inhibition of Keap1/Nrf2 interaction in human HaCaT cells assessed as increase in GCLC gene expression at 10 uM incubated for 6 hrs by qPCR method
[6] = molecular target: T1, Keap1/Nrf2 (Homo sapiens); assay: Inhibition of Keap1/Nrf2 interaction in human HaCaT cells assessed as increase in NQO1 gene expression at 10 uM incubated for 24 hrs by qPCR method
[7] = molecular target: T1, Keap1/Nrf2 (Homo sapiens); assay: Inhibition of Keap1/Nrf2 interaction in human HaCaT cells assessed as increase in NQO1 protein expression at 10 uM incubated for 6 hrs by Western blot method
Outline: (§1)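 HaCaT cells in DMEM, 10% FBS, 1% antibiotics, treated at 70–80% confluence with 10 μM compound or DMSO for 6 or 24 h in complete medium. Lysates (~40 μg protein) resolved by 10% SDS-PAGE, immunoblotted for NQO1; bands quantified against GAPDH, vehicle set to one arbitrary unit.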

[8] = molecular target: T1, Keap1/Nrf2 (Homo sapiens); assay: Inhibition of Keap1/Nrf2 interaction in human HaCaT cells assessed as increase in NQO1 protein expression at 10 uM incubated for 24 hrs by Western blot method; outline: as §1

fold change (FC) [1]: 2
fold change (FC) [2]: 2
inhibition [3]: Active
inhibition [4]: Active
inhibition [5]: Active
inhibition [6]: Active
inhibition [7]: Active
inhibition [8]: Active
SMILES: COc1ccc(S(=O)(=O)N(CC(=O)O)c2cnc(N(CC(=O)O)S(=O)(=O)c3ccc(OC)cc3)c3ccccc23)cc1
